Assay results from patent US20100249123A1, “NOVEL BENZAMIDE DERIVATIVES AS MODULATORS OF THE FOLLICLE STIMULATING HORMONE” (ADDEX PHARMA SA, priority 2007, published 2010).

Protein sequences, listed by entry. Tags and fused reporters are not part of them. Residues count along the entry.
UniProt P20395, 18-692 limits assumed: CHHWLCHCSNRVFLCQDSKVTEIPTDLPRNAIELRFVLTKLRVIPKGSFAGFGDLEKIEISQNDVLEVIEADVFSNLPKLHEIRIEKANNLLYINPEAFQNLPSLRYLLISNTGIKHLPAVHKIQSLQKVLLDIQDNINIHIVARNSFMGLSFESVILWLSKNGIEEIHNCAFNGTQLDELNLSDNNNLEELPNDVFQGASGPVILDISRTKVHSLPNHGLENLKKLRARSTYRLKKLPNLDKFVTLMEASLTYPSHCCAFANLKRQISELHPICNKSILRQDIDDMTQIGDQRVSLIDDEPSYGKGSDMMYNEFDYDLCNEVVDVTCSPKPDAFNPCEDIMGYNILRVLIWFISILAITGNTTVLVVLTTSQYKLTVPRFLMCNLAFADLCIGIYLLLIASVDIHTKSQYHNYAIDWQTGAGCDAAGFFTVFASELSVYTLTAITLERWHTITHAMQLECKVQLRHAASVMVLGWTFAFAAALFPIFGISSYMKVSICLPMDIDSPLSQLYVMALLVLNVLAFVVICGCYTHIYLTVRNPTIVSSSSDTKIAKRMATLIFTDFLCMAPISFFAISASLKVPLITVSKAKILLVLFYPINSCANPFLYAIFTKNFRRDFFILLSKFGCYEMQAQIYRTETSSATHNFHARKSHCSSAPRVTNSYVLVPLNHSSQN

Target: rat follicle stimulating hormone receptor (rFSHR) (Rattus norvegicus, UniProt P20395)
Assay: Intracellular cAMP measurement (HTRF) assay, antagonism of EC70 of hFSH
Settings: read-out: Class (IC50 to antagonise an EC70 of FSH receptors agonist such as hFSH), HEK293 cells expressing rFSHR, 1 ng/ml hFSH (EC70)
From the text: Intracellular cAMP Measurement Assay
The Intracellular cAMP measurement assay is a functional cell-based assay used to study GPCR function. This method relies on a Time-Resolved Fluorescence (HTRF) assay to measure the cAMP accumulation upon receptor-mediated Gs protein activation in cells expressing recombinant GPCR or in cells from native tissues. In brief, this method is a competitive immunoassay between native cAMP produced by cells and the cAMP labeled with a fluorescent tag. The endogenously produced cAMP competes with exogenous added d2-labelled cAMP for the cAMP binding site on a Eu3+ cryptate labelled anti-cAMP antibody. The d2-labelled cAMP and the Eu^3+ labelled antibody produces a basal fluroresence via HTRF and therefore an intracellular increase in unlabelled cAMP is detected as decrease in this signal. cAMP is one of the most important intracellular mediators. Its concentration in cells can be increased upon binding of many hormones to their receptors. The most studied pathway consists in the release of α-subunit GTP-binding proteins following ligand-receptor interaction, which in turn activates or inhibits the ATP/cAMP conversion function of adenylate cyclase enzyme. cAMP is then involved in many complex regulatory processes such as protein kinase activation or ion channel gating. This method is widely used to study receptor activation of G protein in cells over-expressing GPCRs or in native cells, including FSH receptors expressing cells (Gabriel et al., Assay Drug Dev. Technol., 1, 291-303, 2003).
Transfection and cell culture: The cDNA encoding the rat follicle stimulating hormone receptor (rFSHR), (accession number NM_199237, NCBI Nucleotide database browser) was subcloned into an expression vector containing also the hygromycin resistance gene. Transfection of this vector into HEK293 cells with PolyFect reagent (Qiagen) according to supplier's protocol, and hygromycin treatment allowed selection of antibiotic resistant cells which had integrated stably one or more copies of the plasmid. Positive cellular clones expressing rFSHR were identified in a functional assay measuring cAMP production in cells following stimulation by addition of purified human follicle stimulating hormone (hFSH).
HTRF cAMP assay: On the day of the experiment, cells were detached from the Petri dish and distributed in a low volume, black-walled 384-well plate at a density of 5,000 cells/well in an assay buffer containing 1 mM IBMX to prevent cAMP degradation by cytoplasmic phosphodiesterases. The determination of the cAMP accumulation was performed using an HTRF assay (Trinquet et al., Anal. Biochem., 358, 126-135, 2006). Briefly, cells were incubated for 3 min in the presence of increasing concentrations of negative allosteric modulators (from 1 nM to 60 μM) and then 30 min in the presence of 1 ng/ml of hFSH, an agonist of rat FSH receptor, that has been determined in previous experiments to correspond to the EC70, a concentration that gives 70% of the maximal response of the agonist, and is in accordance with published data (Fox et al., Mol. Endocrin., 15, 378-389, 2001). […] Cells were then lysed by adding the HTRF assay components, the europium cryptate-labeled anti-cAMP antibody, and the XL665-labeled cAMP analog, previously diluted in a HEPES buffer (50 mM, pH 7.0) containing 0.8 M potassium fluoride, 0.2% (w/v) BSA, and 1% (v/v) Triton X-100, a percentage of detergent that ensure complete cell lysis. Assay was then incubated for 1 hr at room temperature, and HTRF signal was measured after excitation at 337 nm, and dual emission at 620 and 665 nm, using a RubyStar fluorimeter (BMG Labtechnologies). Moreover, the fluorescence ratio of an appropriate range of known concentrations of cAMP standards was also included on each assay plate to produce a standard cAMP curve. […]

Row | Structure (SMILES) | IC50
1 | COc1ccc(C(=O)Nc2ccc(C(C)(C)CNC(=O)Cn3ccc4cc(F)ccc43)cc2)cc1OC | < 0.15 µM
2 | COc1ccc(C(=O)Nc2ccc(C(C)(C)CNC(=O)c3c[nH]c4cnc(F)cc34)cc2)cc1OC | < 0.15 µM
3 | COc1ccc(C(=O)Nc2ccc(C(C)(C)CNC(=O)c3c[nH]c4c(F)nccc34)cc2)cc1OC | 0.15 to 0.4 µM
4 | COc1ccc(C(=O)Nc2ccc(C(C)(C)CNC(=O)c3nc4cccnc4[nH]3)cc2)cc1OC | 0.4 to 1 µM
5 | COc1ccc(C(=O)Nc2ccc(C(C)(C)CNC(=O)c3cnc4[nH]cnc4c3)cc2)cc1OC | > 1 µM
6 | COc1ccc(C(=O)Nc2ccc(C(C)(C)CNC(=O)c3c[nH]c4cnc(Cl)cc34)cc2)cc1OC | 0.15 to 0.4 µM
7 | COc1ccc(C(=O)Nc2ccc(C(C)(C)CNC(=O)c3n[nH]c4ccc(F)cc34)cc2)cc1OC | < 0.15 µM
